## scFv variants of Ab-14 (heavy chain) against a SARS-CoV-2 spike peptide

Binding partner: SARS-CoV-2 spike HR2 peptide, sequence PDVDLGDISGINAS.

The variants keep the light chain, the linker and the frameworks of Ab-14 (scFv order VH, a 15-residue (Gly4Ser)3 linker, VL).
VH: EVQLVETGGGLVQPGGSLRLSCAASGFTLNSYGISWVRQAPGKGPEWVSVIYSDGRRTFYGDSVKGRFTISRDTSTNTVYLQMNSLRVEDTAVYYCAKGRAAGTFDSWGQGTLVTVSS
VL: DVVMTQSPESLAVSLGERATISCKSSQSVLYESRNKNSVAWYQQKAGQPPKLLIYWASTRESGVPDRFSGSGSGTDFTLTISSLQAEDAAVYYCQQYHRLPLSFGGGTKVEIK

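Phage display of a naive human antibody library on the peptide gave the parent. Variants in AAYL49 differ from the parent at up to three CDR positions; double and triple changes were sampled at random. Affinity was read by AlphaSeq, a pooled yeast mating assay with surface-displayed partners. After mating in shaken culture at 30 °C for 16 h, diploids were selected and their barcode pairs sequenced. Each replicate has its own calibration line, from reference interactions of the BCL2 family. There are three technical replicates.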

Each variant is given by its three heavy chain CDRs, as the data file delimits them; those of the parent are GFTLNSYGIS, VIYSDGRRTFYGDSVK, GRAAGTFDS. All variants listed here change G26 of the VH, counted from its first residue. Values are apparent Kd, the geometric mean of the replicates that gave a signal; lower means stronger binding. An entry "no signal" has no value in the source: the pair was not observed among the diploids in any replicate. This suggests poor binding but is not conclusive. Empty control strains, which show no peptide, gave a signal in 15% of pairings with library AAYL49; the median was 11 µM and 95% of these signals were weaker than 680 nM. No background was subtracted.

CDR-H1	CDR-H2	CDR-H3	Kd (apparent)	seen in
PFTLNSYGIS	VIYSDGRCTFYGDSVK	GRAAGTFDS	no signal	0 of 3
HFTLNSYGIS	VIYWDGRRTFYGDSVT	GRAAGTFDS	5.2 µM	2 of 3
DDTLNSYGIS	VIYSDGRRTEYGDSVK	GRAAGTFDS	110 nM	3 of 3
TFTLNSYGIS	VIYSDNRETFYGDSVK	GRAAGTFDS	no signal	0 of 3
PFTLNSYGIS	VIYKDGRRTFYGDSVK	GRSAGTFDS	600 nM	1 of 3
FFTYNSYGIS	VIYSDGRRTFYGDHVK	GRAAGTFDS	no signal	0 of 3
VFTLNSYGIS	VIYSDGRRTFYGDSVK	GRQAGTFDS	100 nM	3 of 3
MFTLNSYGIL	VIYSDGNRTFYGDSVK	GRAAGTFDS	24 µM	2 of 3
SFTLNSYGIS	VIYSDGRRCFYGDSVK	GPAAGTFDS	420 µM	3 of 3
AFTLNSYGIS	VIYSRGRRTFYGDSSK	GRAAGTFDS	no signal	0 of 3
WLTLNSYGIS	VIYSDGRRTFYGDSVK	TRAAGTFDS	no signal	0 of 3
LFTLNSYGIS	VIYSDGRRTFYGDSVK	GRDAGTDDS	no signal	0 of 3
MFTLNNYGIS	VIYVDGRRTFYGDSVK	GRAAGTFDS	360 nM	3 of 3
VFTLNQYGIS	VIYSDGRRTFYGDSVK	GRAAGTFDS	76 nM	3 of 3
CGTLNSYGIS	VIYSDGRRTFYGDSVK	GRAAGTFDS	no signal	0 of 3
YFTLNSYGIS	VIYSDGRRTFYGDSVK	GRAAGTFGS	390 nM	2 of 3
EFTLNSYGIS	NIYSDGRRTFVGDSVK	GRAAGTFDS	no signal	0 of 3
AFTLNQYGIS	VIYSDGRRTFYGGSVK	GRAAGTFDS	140 nM	3 of 3
CFTLNSYGIS	VIYSDGRRTDLGDSVK	GRAAGTFDS	no signal	0 of 3
TFTLNSYGIS	VIYSPGRRTFLGDSVK	GRAAGTFDS	no signal	0 of 3
YFTLNSEGIS	VIYSDGRRTFYGDSVK	HRAAGTFDS	640 µM	1 of 3
QFTLNSYTIS	VIYSDGRRTFYGDSVK	GEAAGTFDS	1.3 µM	1 of 3
LFTLNSYGIS	VIYSDGRRTFYYDSVK	GRAAGTFDS	28 nM	3 of 3
PFTLNSYFIS	VIYSDGRRTFYGDSVV	GRAAGTFDS	70 µM	1 of 3
KFTLNSYGIS	GIYSDGFRTFYGDSVK	GRAAGTFDS	8.6 µM	2 of 3
TFTLNSYGIS	VIYSDGRRTFYWDSVK	GRALGTFDS	no signal	0 of 3
EFTLNSWGIS	VIYSDGRWTFYGDSVK	GRAAGTFDS	46 µM	1 of 3
DFTLNSYGDS	VIYSDGRRTFYGDSVK	GRAAGTFDS	12 µM	1 of 3
LFTLNSYGIS	VIYSDGRRTFYGDMVK	GRAAGTRDS	no signal	0 of 3
YFTLNSYGIS	IIYSDGRRTFYLDSVK	GRAAGTFDS	100 µM	3 of 3
TMTLNSYGIS	VIYSDGRRTFYGDSKK	GRAAGTFDS	26 µM	2 of 3
NFTLNSYGIS	VIYSCGRRTFVGDSVK	GRAAGTFDS	no signal	0 of 3
FFTLNSYGIQ	VIYSDGRRTFYGDSVK	GRAAGTKDS	1.4 µM	1 of 3
MFTLNSYGIS	VIYSDGRRTFYGDSVK	GRAAGTFDS	6.0 µM	2 of 3
PFTLNSYGIS	VIYHDGRRTFYGDPVK	GRAAGTFDS	1.0 µM	3 of 3
YFVLNSYGIS	VICSDGRRTFYGDSVK	GRAAGTFDS	no signal	0 of 3
MFTLNSYGIS	FIYSDGRRTFYGDSVK	GRAAGIFDS	no signal	0 of 3
EFTLNSYGIT	VIYSDIRRTFYGDSVK	GRAAGTFDS	no signal	0 of 3
EFTLNSYGIS	VIYSDGRRIFYGDSVK	GRAARTFDS	no signal	0 of 3
SFTLNSYGIS	VIYSDGRRTFYGDSVK	GRAAGTFCS	24 nM	3 of 3
WFTLNSYGIS	VIYSDGRRTKYGDSVK	GRAAGTFDS	260 nM	1 of 3
QFTLNSYGIS	SIYSDGRRYFYGDSVK	GRAAGTFDS	780 nM	1 of 3
HFTLNSYGIS	VPYSDGRRTFYGASVK	GRAAGTFDS	no signal	0 of 3
PFTLNSYGIK	VIYSDGRVTFYGDSVK	GRAAGTFDS	590 µM	1 of 3
NFTLNNHGIS	VIYSDGRRTFYGDSVK	GRAAGTFDS	15 µM	3 of 3
LFWLNSYGIS	EIYSDGRRTFYGDSVK	GRAAGTFDS	780 µM	1 of 3
FFTLNSGGIS	WIYSDGRRTFYGDSVK	GRAAGTFDS	36 µM	1 of 3
AFTLISYGIS	VIYSDGRRTFYGDSVK	GRAAGCFDS	18 µM	2 of 3
AFTLNSYGIS	VIYSDGRRTFYGRSVK	GHAAGTFDS	330 nM	3 of 3
IFTLNSYGIS	VIYSDGRRKFYGDSVK	GRAAGTFDN	4.3 µM	3 of 3
AFTLNSYGIS	VCYSDGRRTFYGDSVK	GRAASTFDS	no signal	0 of 3
VFTLNSYGIS	VLYSDGRRTCYGDSVK	GRAAGTFDS	no signal	0 of 3
AFTLNSCGIS	VIYSDGRRTFYGDSVK	GRAAGTFDS	22 µM	1 of 3
FFTLNSYGIS	VIYSDGRRTFHGDSVK	GRAAGTDDS	60 µM	1 of 3
QFTLNSYFIS	VIYSDGRRTFYGDSVK	RRAAGTFDS	no signal	0 of 3
ETTLNSYGIS	VIYSDGRRTFYGDSQK	GRAAGTFDS	no signal	0 of 3
DFTLNSYGIS	VIYSDGRRTFYGDSVK	GRAAPTFDS	420 nM	3 of 3
DFTLNSYGIS	VPYSDGRRTFYGDSVK	GRAAGTFDS	76 µM	1 of 3
KFTLNSYGIM	VIYSDGRRTFYGDSVK	GRAAGTFDL	no signal	0 of 3
QFTLNYYGIS	VIYWDGRRTFYGDSVK	GRAAGTFDS	220 nM	2 of 3
WFTLNSYGIS	VIYSDGRRTFYGDSVK	GRAAGTFDS	2.1 µM	2 of 3
PFTLNSYGIS	VIYKDGRRTFYPDSVK	GRAAGTFDS	no signal	0 of 3
FFTLNSYIIS	VIYSDGRRTFYGDSVK	GRAAGTFDG	28 µM	2 of 3
SFTLNSYGIS	VIYSDGHRFFYGDSVK	GRAAGTFDS	no signal	0 of 3
IFTLNSYGIS	VIYSDGRRLFYGDSVK	GRAAGTFDS	no signal	0 of 3
CKTLNSYGIS	VIYSDGRRTFYGDSVK	GRFAGTFDS	1.9 µM	3 of 3
YFTLNSYGIS	VILSDGRRTFYGDSVK	GRATGTFDS	no signal	0 of 3
QFTLNSYGIG	CIYSDGRRTFYGDSVK	GRAAGTFDS	2.1 µM	1 of 3
QFTLNSYGIS	VIYSDGRRSFYGDSVK	GRAAGTFIS	no signal	0 of 3
WFTLNWYGIS	VIYSDNRRTFYGDSVK	GRAAGTFDS	no signal	0 of 3

A selection of 11 entries from above:

CDR-H1,CDR-H2,CDR-H3,Kd (apparent),seen in
DDTLNSYGIS,VIYSDGRRTEYGDSVK,GRAAGTFDS,110 nM,3 of 3
YFTLNSEGIS,VIYSDGRRTFYGDSVK,HRAAGTFDS,640 µM,1 of 3
ETTLNSYGIS,VIYSDGRRTFYGDSQK,GRAAGTFDS,no signal,0 of 3
FFTLNSYGIS,VIYSDGRRTFHGDSVK,GRAAGTDDS,60 µM,1 of 3
MFTLNSYGIL,VIYSDGNRTFYGDSVK,GRAAGTFDS,24 µM,2 of 3
CGTLNSYGIS,VIYSDGRRTFYGDSVK,GRAAGTFDS,no signal,0 of 3
PFTLNSYGIS,VIYKDGRRTFYPDSVK,GRAAGTFDS,no signal,0 of 3
YFVLNSYGIS,VICSDGRRTFYGDSVK,GRAAGTFDS,no signal,0 of 3
WFTLNWYGIS,VIYSDNRRTFYGDSVK,GRAAGTFDS,no signal,0 of 3
FFTYNSYGIS,VIYSDGRRTFYGDHVK,GRAAGTFDS,no signal,0 of 3
NFTLNNHGIS,VIYSDGRRTFYGDSVK,GRAAGTFDS,15 µM,3 of 3

Values reported by Engelhart et al. 2022, doi:10.1038/s41597-022-01779-4 (FLAb copy).